Columns and labels:
D1 = D1 (Homo sapiens, UniProt P21728); conditions: read-out: Ki D1; ± SEM
α2C = α2C (Homo sapiens, UniProt P18825); test: PDSP off-target binding; conditions: ± SEM
5HT5A = 5HT5A (Homo sapiens, UniProt P47898); conditions: read-out: Ki 5HT5A; ± SEM
α1A = α1A (Homo sapiens, UniProt P35348); conditions: read-out: Ki α1A; ± SEM
mP2Y14R = molecular target: T1, mP2Y14R (Mus musculus, UniProt Q9ESG6); conditions: read-out: Mouse P2Y14R binding affinity (IC50)
T1 sequence (Q9ESG6 1-338): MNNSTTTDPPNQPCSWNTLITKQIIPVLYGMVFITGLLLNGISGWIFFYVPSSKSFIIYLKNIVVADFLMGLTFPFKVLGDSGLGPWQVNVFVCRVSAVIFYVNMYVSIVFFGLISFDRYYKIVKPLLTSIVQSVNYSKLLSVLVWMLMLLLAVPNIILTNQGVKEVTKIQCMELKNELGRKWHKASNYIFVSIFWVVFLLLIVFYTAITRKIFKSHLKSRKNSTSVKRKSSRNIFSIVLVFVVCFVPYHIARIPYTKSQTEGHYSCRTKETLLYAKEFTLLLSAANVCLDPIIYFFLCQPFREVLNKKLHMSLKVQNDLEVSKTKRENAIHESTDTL

Amino acid sequences for entries named in this document (tags omitted). A change or cut given only in a name is not applied to a line headed by its entry.
UniProt P21728, whole entry: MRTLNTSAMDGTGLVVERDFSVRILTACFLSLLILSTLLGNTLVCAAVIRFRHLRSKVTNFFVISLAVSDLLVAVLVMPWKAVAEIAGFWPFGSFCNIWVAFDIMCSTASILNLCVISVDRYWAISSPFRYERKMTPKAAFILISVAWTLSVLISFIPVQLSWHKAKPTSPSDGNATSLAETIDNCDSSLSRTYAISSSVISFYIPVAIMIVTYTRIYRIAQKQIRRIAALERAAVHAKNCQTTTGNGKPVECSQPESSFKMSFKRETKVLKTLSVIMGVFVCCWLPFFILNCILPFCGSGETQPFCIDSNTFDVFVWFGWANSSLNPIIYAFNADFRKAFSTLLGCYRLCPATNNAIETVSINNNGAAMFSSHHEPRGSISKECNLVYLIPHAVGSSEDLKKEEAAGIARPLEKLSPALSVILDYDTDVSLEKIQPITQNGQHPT
UniProt P18825, whole entry: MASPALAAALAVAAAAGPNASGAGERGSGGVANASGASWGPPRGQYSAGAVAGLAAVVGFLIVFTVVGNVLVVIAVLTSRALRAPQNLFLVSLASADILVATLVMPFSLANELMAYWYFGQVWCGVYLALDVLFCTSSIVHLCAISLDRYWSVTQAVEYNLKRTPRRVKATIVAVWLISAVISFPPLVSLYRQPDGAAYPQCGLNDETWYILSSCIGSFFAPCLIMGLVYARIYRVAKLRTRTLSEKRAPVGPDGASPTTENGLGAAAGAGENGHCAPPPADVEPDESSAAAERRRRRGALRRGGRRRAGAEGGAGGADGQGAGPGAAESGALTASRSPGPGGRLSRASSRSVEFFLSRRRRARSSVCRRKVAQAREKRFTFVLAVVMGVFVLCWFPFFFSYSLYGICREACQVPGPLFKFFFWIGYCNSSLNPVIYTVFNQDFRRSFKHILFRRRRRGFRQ
UniProt P47898, whole entry, species assumed: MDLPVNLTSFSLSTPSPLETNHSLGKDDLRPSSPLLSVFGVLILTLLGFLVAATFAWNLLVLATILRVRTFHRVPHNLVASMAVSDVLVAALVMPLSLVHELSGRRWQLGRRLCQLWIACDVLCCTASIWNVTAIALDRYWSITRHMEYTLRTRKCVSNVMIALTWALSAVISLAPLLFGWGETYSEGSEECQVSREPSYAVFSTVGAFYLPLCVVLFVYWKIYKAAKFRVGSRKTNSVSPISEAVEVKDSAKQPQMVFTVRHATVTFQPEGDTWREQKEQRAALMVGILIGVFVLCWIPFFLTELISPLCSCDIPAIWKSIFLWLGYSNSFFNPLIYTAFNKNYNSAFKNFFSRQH
UniProt P35348: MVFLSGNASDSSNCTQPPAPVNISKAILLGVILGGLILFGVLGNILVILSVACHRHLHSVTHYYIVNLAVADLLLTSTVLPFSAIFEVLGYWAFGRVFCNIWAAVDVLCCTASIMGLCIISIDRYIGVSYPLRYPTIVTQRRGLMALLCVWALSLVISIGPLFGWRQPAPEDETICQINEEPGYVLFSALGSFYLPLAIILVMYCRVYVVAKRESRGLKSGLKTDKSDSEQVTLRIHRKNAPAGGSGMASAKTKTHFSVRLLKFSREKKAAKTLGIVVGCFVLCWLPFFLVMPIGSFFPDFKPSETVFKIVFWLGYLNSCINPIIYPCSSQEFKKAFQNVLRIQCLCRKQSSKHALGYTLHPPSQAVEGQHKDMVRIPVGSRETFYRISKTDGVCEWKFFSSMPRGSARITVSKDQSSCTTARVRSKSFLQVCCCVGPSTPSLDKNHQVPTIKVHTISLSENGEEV

SMILES | Ki (D1) [nM] | Ki (α2C) [nM] | Ki (5HT5A) [nM] | Ki (α1A) [nM] | IC50 (mP2Y14R) [nM]
CC(=O)N1CCC(c2ccc(-c3cc(C(=O)O)cc4cc(-c5ccc(C(F)(F)F)cc5)ccc34)cc2)CC1 [Compound 4, 4-(4-(1-(Acetyl)piperidin-4-yl)phenyl)-7-(4-(trifluoromethyl)phenyl)-2-naphthoic acid] | 1390 | 4310 | 2340 ± 1250 | 3140 | –
O=C(O)c1cc(-c2ccc(C3CCNCC3)cc2)cc(-n2cc(-c3ccc(C(F)(F)F)cc3)nn2)c1 [Compound 6] | – | – | – | – | 142 ± 58

Reference: patent US11708346B2, “Treatment and prevention of neuropathic pain with P2Y14 antagonists” (Saint Louis University, priority 2019, dated 2023)
